We go through six molecules from patent US11071788B2, “Antibody drug conjugates of kinesin spindel protein (KSP) inhibitors with antiB7H3-antibodies” (BAYER PHARMA AKTIENGESELLSCHAFT, priority 2015, dated 2021).

B1: 208-6502: ADC of Example 208 (Intermediate F104) with anti-B7H3 antibody 6502 (conjugate)
heavy: EVQLLESGGGLVQPGGSLRLSCAASGFTFSTYGMHWVRQAPGKGLEWVSAISGSGGSTYYADSVKGRFTISRDNSKNTLYLQMNSLRAEDTAVYYCTRGYYYYGMDVWGQGTLVTVSSASTKGPSVFPLAPSSKSTSGGTAALGCLVKDYFPEPVTVSWNSGALTSGVHTFPAVLQSSGLYSLSSVVTVPSSSLGTQTYICNVNHKPSNTKVDKKV[left out - human IgG1 Fc]
light: QSVLTQPPSASGTPGQRVTISCSGGSSNIGSNPVNWYQQLPGTAPKLLIYGNSKRPSGVPDRFSGSKSGTSASLAISGLRSEDEADYYCQSYDSSLSGWVFGGGTKLTVLGQPKAAPSVTLFPPSSEELQANKATLVCLISDFYPGAVTVAWKADSSPVKAGVETTTPSKQSNNKYAASSYLSLTPEQWKSHRSYSCQVTHEGSTVEKTVAPTECS
B2: 257-6499: ADC of Example 257 (Intermediate F257) with anti-B7H3 antibody 6499 (conjugate)
heavy: EVQLLESGGGLVQPGGSLRLSCAASGFTFRDFYMNWIRQAPGKGLEWVSSISASGKYTYYADSVKGRFTISRDNSKNTLYLQMNSLRAEDTAVYYCAREWGYCTNDVCRNWFDPWGQGTLVTVSSASTKGPSVFPLAPSSKSTSGGTAALGCLVKDYFPEPVTVSWNSGALTSGVHTFPAVLQSSGLYSLSSVVTVPSSSLGTQTYICNVNHKPSNTKVDKKV[left out - human IgG1 Fc]
light: QSVLTQPPSASGTPGQRVTISCSGGYSNVGGNNVNWYQQLPGTAPKLLIYGNSNRPSGVPDRFSGSKSGTSASLAISGLRSEDEADYYCQSYDSSLSGSVFGGGTKLTVLGQPKAAPSVTLFPPSSEELQANKATLVCLISDFYPGAVTVAWKADSSPVKAGVETTTPSKQSNNKYAASSYLSLTPEQWKSHRSYSCQVTHEGSTVEKTVAPTECS
B3: 208-6515: ADC of Example 208 (Intermediate F104) with anti-B7H3 antibody 6515 (conjugate)
heavy: EVQLLESGGGLVQPGGSLRLSCAASGFTFSSYGMHWVRQVPGKGLEWVSAISGSGGTTYYADSVKGRFTISRDNSKNTLYLQMNSLRAEDTAVYYCARGGYHFLFDYWGQGTLVTVSSASTKGPSVFPLAPSSKSTSGGTAALGCLVKDYFPEPVTVSWNSGALTSGVHTFPAVLQSSGLYSLSSVVTVPSSSLGTQTYICNVNHKPSNTKVDKKV[left out - human IgG1 Fc]
light: QSVLTQPPSASGTPGQRVTISCSGSSSNIGSNTVNWYQQLPGTAPKLLIYRNDQRLLGVPDRFSGSKSGTSASLAISGLRSEDEADYYCQSYDSSLSGWVFGGGTKLTVLGQPKAAPSVTLFPPSSEELQANKATLVCLISDFYPGAVTVAWKADSSPVKAGVETTTPSKQSNNKYAASSYLSLTPEQWKSHRSYSCQVTHEGSTVEKTVAPTECS
B4: 194-6502 (conjugate)
heavy: EVQLLESGGGLVQPGGSLRLSCAASGFTFSTYGMHWVRQAPGKGLEWVSAISGSGGSTYYADSVKGRFTISRDNSKNTLYLQMNSLRAEDTAVYYCTRGYYYYGMDVWGQGTLVTVSSASTKGPSVFPLAPSSKSTSGGTAALGCLVKDYFPEPVTVSWNSGALTSGVHTFPAVLQSSGLYSLSSVVTVPSSSLGTQTYICNVNHKPSNTKVDKKV[left out - human IgG1 Fc]
light: QSVLTQPPSASGTPGQRVTISCSGGSSNIGSNPVNWYQQLPGTAPKLLIYGNSKRPSGVPDRFSGSKSGTSASLAISGLRSEDEADYYCQSYDSSLSGWVFGGGTKLTVLGQPKAAPSVTLFPPSSEELQANKATLVCLISDFYPGAVTVAWKADSSPVKAGVETTTPSKQSNNKYAASSYLSLTPEQWKSHRSYSCQVTHEGSTVEKTVAPTECS
B5: 173-6515: ADC of Example 173 (Intermediate F173) with anti-B7H3 antibody 6515 (conjugate)
heavy: EVQLLESGGGLVQPGGSLRLSCAASGFTFSSYGMHWVRQVPGKGLEWVSAISGSGGTTYYADSVKGRFTISRDNSKNTLYLQMNSLRAEDTAVYYCARGGYHFLFDYWGQGTLVTVSSASTKGPSVFPLAPSSKSTSGGTAALGCLVKDYFPEPVTVSWNSGALTSGVHTFPAVLQSSGLYSLSSVVTVPSSSLGTQTYICNVNHKPSNTKVDKKV[left out - human IgG1 Fc]
light: QSVLTQPPSASGTPGQRVTISCSGSSSNIGSNTVNWYQQLPGTAPKLLIYRNDQRLLGVPDRFSGSKSGTSASLAISGLRSEDEADYYCQSYDSSLSGWVFGGGTKLTVLGQPKAAPSVTLFPPSSEELQANKATLVCLISDFYPGAVTVAWKADSSPVKAGVETTTPSKQSNNKYAASSYLSLTPEQWKSHRSYSCQVTHEGSTVEKTVAPTECS
B6: 208-6499: ADC of Example 208 (Intermediate F104) with anti-B7H3 antibody 6499 (conjugate)
heavy: EVQLLESGGGLVQPGGSLRLSCAASGFTFRDFYMNWIRQAPGKGLEWVSSISASGKYTYYADSVKGRFTISRDNSKNTLYLQMNSLRAEDTAVYYCAREWGYCTNDVCRNWFDPWGQGTLVTVSSASTKGPSVFPLAPSSKSTSGGTAALGCLVKDYFPEPVTVSWNSGALTSGVHTFPAVLQSSGLYSLSSVVTVPSSSLGTQTYICNVNHKPSNTKVDKKV[left out - human IgG1 Fc]
light: QSVLTQPPSASGTPGQRVTISCSGGYSNVGGNNVNWYQQLPGTAPKLLIYGNSNRPSGVPDRFSGSKSGTSASLAISGLRSEDEADYYCQSYDSSLSGSVFGGGTKLTVLGQPKAAPSVTLFPPSSEELQANKATLVCLISDFYPGAVTVAWKADSSPVKAGVETTTPSKQSNNKYAASSYLSLTPEQWKSHRSYSCQVTHEGSTVEKTVAPTECS

This assay concerns Raji: human Burkitt's lymphoma cells, B7H3-negative. Put plainly: CTG cytotoxicity assay of anti-B7H3 ADCs, Raji. As to conditions: 72 h incubation. The format is cell-based. The method, then:
The analysis of the cytotoxic effects of the anti-B7H3 ADCs was carried out with various cell lines:
Raji: human Burkitt's lymphoma cells, DMSZ-ACC-319, standard medium: RPMI 1640; (Biochrom; # FG 1215, with stable glutamine)+10% FCS (Biochrom; # S0415), B7H3-negative.
The cells were cultivated by the standard method as stated by the American Tissue Culture Collection (ATCC) for the cell lines in question.
The cells were cultivated according to the standard method using the growth media listed under C-1. The test was carried out by detaching the cells with a solution of trypsin (0.05%) and EDTA (0.02%) in PBS (Biochrom AG #L2143), pelleting, resuspending in culture medium, counting and sowing into a 96-well culture plate with white bottom (Costar #3610) (75 μl/well, the following cell numbers per well: NCI-H292: 2500 cells/well, BxPC3 2500 cells/well) and incubating in an incubator at 37° C. in 5% carbon dioxide. After 24 h, the antibody drug conjugates in 25 μl of culture medium (four-fold concentrated) were added to the cells such that a final concentration of antibody drug conjugates of 3×10^−7 M to 3×10^−11 M on the cells was reached (in triplicate). The cells were then incubated in an incubator at 37° C., and 5% carbon dioxide. In a parallel plate, the cell vitality was determined at the start of the drug treatment (day 0) using the Cell Titer Glow (CTG) Luminescent Cell Viability Assay (Promega #G7573 and #G7571). To this end, 100 μl of the […] were added per cell batch, the plates were then covered with aluminium foil, shaken on the plate shaker at 180 rpm for 2 minutes, allowed to stand on the laboratory bench for 8 minutes and then measured using a luminometer (Victor X2, Perkin Elmer). The substrate detects the ATP content in the living cells, generating a luminescence signal of which the height is directly proportional to the vitality of the cells. After 72 h of incubation with the antibody drug conjugates, in these cells, too, the vitality was determines using the Cell Titer Glow Luminescent Cell Viability Assay as described above. From the measured data, the IC^50 of the growth inhibition in comparison to day 0 was calculated using the DRC (dose response curve) analysis spreadsheet with a 4-parameter fit. The DRC analysis spreadsheet is a Biobook Spreadsheet developed by Bayer Pharma AG and Bayer Business Services on the IDBS E-WorkBook Suite platform (1DBS: ID Business Solutions Ltd., Guildford, UK).
As to B1, the IC50 (commonly the point on the concentration scale where inhibition reaches its midpoint) is 124 nM. The result for B2 reads 72.8 nM; that for B3, 114 nM; that for B4, more than 300 nM. B5 yielded an IC50 of 123 nM. For B6, the IC50 was more than 300 nM.
